For assay [1], the system named is reporter viruses pseudotyped with HIV-1JR-FL envelope (U87-CD4-CCR5 cells). The settings on record: in combination with PRO 140; both HIV-1JR-FL and HIV-1SF162 pseudoviruses, 50% and 90% inhibition.
For assay [2], the system named is HIV-1JR-FL envelope-mediated membrane fusion. The settings on record: in combination with PRO 140.

As to `COC[C@@H](c1ccc(C(F)(F)F)cc1)N1CCN(C2(C)CCN(C(=O)c3c(C)ncnc3C)CC2)C[C@@H]1C` [SCH-D, 1-[(4,6-dimethyl-5-pyrimidinyl)carbonyl]-4-[4-[2-methoxy-1(R)-4-(trifluoromethyl)phenyl]ethyl-3(S)-methyl-1-piperazinyl]-4-methylpiperidine], the CI values entry in assay [1] is on record as “potently synergized”. Also, the “CI values (50% and 90% inhibition)” value in assay [2] is reported as “Potent synergy”.

For the origin of these results see patent US10500274B2, “Methods for reducing viral load in HIV-1 infected patients” (CytoDyn Inc., priority 2008, dated 2019).
